Data: US20260285872A1, “COMPOUNDS AND METHODS FOR DEGRADING GSPT1” (priority 2023, published 2026)

Chains of the proteins cited; added tags and fusions are not shown. Lines headed by an entry give the natural chain unless they say otherwise; changes in a name come on top.
UniProt P15170, whole entry: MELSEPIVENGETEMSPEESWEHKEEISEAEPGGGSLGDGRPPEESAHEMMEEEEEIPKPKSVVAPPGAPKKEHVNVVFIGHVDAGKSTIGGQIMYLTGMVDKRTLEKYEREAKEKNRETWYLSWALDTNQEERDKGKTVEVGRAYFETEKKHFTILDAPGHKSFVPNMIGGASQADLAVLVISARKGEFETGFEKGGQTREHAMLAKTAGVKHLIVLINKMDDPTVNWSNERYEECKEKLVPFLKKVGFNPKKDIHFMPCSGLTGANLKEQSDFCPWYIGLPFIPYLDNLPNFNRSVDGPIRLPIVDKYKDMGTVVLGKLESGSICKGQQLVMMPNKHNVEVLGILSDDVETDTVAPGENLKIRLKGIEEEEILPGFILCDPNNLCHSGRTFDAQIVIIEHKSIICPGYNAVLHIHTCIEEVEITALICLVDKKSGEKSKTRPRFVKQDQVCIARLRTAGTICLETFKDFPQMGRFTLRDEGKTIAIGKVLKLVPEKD
UniProt Q96SW2: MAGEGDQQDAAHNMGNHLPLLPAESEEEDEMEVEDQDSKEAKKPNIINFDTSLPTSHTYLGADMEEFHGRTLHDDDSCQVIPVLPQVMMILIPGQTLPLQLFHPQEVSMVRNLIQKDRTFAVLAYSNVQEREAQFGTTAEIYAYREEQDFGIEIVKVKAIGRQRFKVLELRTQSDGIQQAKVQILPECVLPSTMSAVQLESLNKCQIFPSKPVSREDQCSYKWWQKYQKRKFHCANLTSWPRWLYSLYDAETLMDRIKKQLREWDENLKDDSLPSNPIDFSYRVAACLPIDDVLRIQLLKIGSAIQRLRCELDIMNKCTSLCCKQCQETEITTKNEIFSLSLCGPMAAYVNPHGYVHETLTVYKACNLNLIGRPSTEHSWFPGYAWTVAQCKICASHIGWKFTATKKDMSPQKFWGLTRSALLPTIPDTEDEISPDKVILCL

How the values were obtained:
GSPT1 [1] = target: T1, GSPT1 (Homo sapiens, UniProt P15170+Q96SW2); test: GSPT1 degradation, Western Blot, A549 cells, 1 μM, 16 hours; format: cell-based; conditions: % reduction of GSPT1 compared to DMSO, normalized to GAPDH, read-out: GSPT1 degradation classification
GSPT1 [2] = target: T1, GSPT1; test: cell-based; conditions: MV4-11, MV-4-11 cells, 6 hours, Western Blot, % reduction of GSPT1 compared to DMSO, normalized to GAPDH, read-out: GSPT1 degradation classification
GSPT1 [3] = target: T1, GSPT1; test: GSPT1 degradation, Western Blot, MV-4-11 cells, 0.1 μM, 4 hours; format: cell-based; conditions: MV4-11, % reduction of GSPT1 compared to DMSO, normalized to GAPDH, read-out: GSPT1 degradation classification
Experimental: Compounds of the present disclosure was added to cells (final DMSO concentration of 0.1%) and incubated for 4 hours. GSPT1 levels were determined in MV-4-11 cells using Western Blot analysis. Briefly, whole cell lysates were prepared in lysis buffer (1×RIPA buffer [Thermo, 89900], 1×Pierce protease inhibitor tablets EDTA-free [Thermo, A32965]). 6-20 μg of the lysates was analyzed using Western Blot with antibodies against GSPT1 (Abcam, ab234433 and ab126090) and GAPDH (CST, #2118). Protein levels were normalized to GAPDH levels.
The efficacy of GSPT1 degradation of a part of compounds of the present disclosure was determined by treating MV-4-11 cells at 0.1 μM (final DMSO concentration of 0.1%) for 4 hours. GSPT1 levels were determined using Western Blot and normalized to GAPDH levels. The compounds are classified based on amount of GSPT1 degradation (% reduction of GSPT1 compared to DMSO) as follows. • A: Degradation is greater than or equal to 75%; • B: Degradation is less than 75% & greater than or equal to 50%; • C: Degradation is less than 50%; • ND: No degradation.

GSPT1 [4] = target: T1, GSPT1; format: cell-based; conditions: read-out: GSPT1 degradation classification; DC50, GSPT1_HiBIT_HEK293 cells, 16 hours, Nano-Glo HiBiT Lytic Detection
Experimental: GSPT1_HiBIT_HEK293 cells were culture in DMEM medium with 10% FBS under standard tissue culture conditions. […] GSPT1 level was determined in along with the Nano-Glo HiBiT Lytic Detection system [Promega N3050] with final concentration of 1×. The luminescence was normalized to that of DMSO-treated samples. DC50 values were obtained using three-parameter non-linear regressions using Prism (GraphPad).

`O=C1CCC(N2Cc3cc(C(=O)Nc4ccccc4)ccc3C2=O)C(=O)N1` (centres unmarked) [Example 93, 2-(2,6-dioxopiperidin-3-yl)-1-oxo-N-phenylisoindoline-5-carboxamide] gave an inhibition at 1 µM (GSPT1 [1]) of under 50%.

Molecule `O=C1CCC(N2Cc3cc(C(=O)N4Cc5ccccc5C4)ccc3C2=O)C(=O)N1` (centres unmarked) [Example 12, 3-(5-(isoindoline-2-carbonyl)-1-oxoisoindolin-2-yl)piperidine-2,6-dione] has an inhibition at 1 µM (GSPT1 [2]) of over 75%.

`COc1cc(F)c2c(c1)CCN2C(=O)c1ccc2c(c1)CN(C1CCC(=O)NC1=O)C2=O` (centres unmarked) [Example 64, 3-(5-(7-fluoro-5-methoxyindoline-1-carbonyl)-1-oxoisoindolin-2-yl)piperidine-2,6-dione] gave an inhibition at 0.1 µM (GSPT1 [3]) of under 50%.

Work on `O=C1CCC(N2Cc3cc(C(=O)N4CCc5c(F)cc(F)cc54)ccc3C2=O)C(=O)N1` (centres unmarked) [Example 92, 3-(5-(4,6-difluoroindoline-1-carbonyl)-1-oxoisoindolin-2-yl)piperidine-2,6-dione] yielded an inhibition at 1 µM (GSPT1 [1]) of over 75%.

Molecule `O=C1CCC(N2Cc3cc(C(=O)N4Cc5c(F)ccc(OC(F)(F)F)c5C4)ccc3C2=O)C(=O)N1` (centres unmarked) [Example 185, 3-(5-(4-fluoro-7-(trifluoromethoxy)isoindoline-2-carbonyl)-1-oxoisoindolin-2-yl)piperidine-2,6-dione] has a DC50 (GSPT1 [4]) of over 1000 nM.
